Among the data in ChEMBL document CHEMBL4673296, “Design, Synthesis, and Characterization of an Orally Active Dual-Specific ULK1/2 Autophagy Inhibitor that Synergizes with the PARP Inhibitor Olaparib for the Treatment of Triple-Negative Breast Cancer” (J Med Chem, 2020) are IC50, inhibition and ΔTm values, retold here.

Test [1] addresses T1, Serine/threonine-protein kinase ULK1 (Homo sapiens, UniProt O75385).
T1 sequence (O75385 whole entry): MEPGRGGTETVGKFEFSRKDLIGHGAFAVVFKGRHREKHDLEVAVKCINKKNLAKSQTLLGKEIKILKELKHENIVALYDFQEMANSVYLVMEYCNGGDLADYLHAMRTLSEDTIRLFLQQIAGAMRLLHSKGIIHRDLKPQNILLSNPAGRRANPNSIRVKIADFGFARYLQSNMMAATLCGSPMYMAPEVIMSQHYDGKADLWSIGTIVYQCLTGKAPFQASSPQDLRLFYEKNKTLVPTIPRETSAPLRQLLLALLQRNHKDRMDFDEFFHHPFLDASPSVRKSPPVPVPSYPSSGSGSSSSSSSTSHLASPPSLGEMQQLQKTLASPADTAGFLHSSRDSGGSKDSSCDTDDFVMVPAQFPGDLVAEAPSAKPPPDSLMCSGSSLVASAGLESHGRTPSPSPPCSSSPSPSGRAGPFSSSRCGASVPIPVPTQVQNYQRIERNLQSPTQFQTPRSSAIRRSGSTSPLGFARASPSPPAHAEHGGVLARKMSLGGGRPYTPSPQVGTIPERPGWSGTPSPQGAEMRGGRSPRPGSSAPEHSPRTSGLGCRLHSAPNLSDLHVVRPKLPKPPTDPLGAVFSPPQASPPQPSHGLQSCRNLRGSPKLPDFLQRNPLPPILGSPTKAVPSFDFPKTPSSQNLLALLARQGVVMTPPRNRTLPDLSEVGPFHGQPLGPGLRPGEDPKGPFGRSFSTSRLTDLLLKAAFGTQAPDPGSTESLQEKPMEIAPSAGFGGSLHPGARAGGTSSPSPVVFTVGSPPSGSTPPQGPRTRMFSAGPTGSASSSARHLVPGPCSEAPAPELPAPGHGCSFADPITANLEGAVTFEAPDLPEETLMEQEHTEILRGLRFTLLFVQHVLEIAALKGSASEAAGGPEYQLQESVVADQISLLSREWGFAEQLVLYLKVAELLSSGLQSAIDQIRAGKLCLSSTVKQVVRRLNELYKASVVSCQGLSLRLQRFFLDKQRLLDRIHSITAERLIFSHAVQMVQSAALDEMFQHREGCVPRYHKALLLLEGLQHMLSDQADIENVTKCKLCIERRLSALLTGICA
As to the kind of experiment: Inhibition of recombinant human ULK1 (1-649) expressed in Sf9 cells using myelin basic protein as substrate by ADP-glo assay. In general terms: ADP-Glo first removes unused ATP, then detects ADP through luciferase.

For test [2], the target named is T1, Serine/threonine-protein kinase ULK1. As to the kind of experiment: Inhibition of ULK1 (unknown origin) expressed in HEK293T cells incubated for 2 hrs by NanoBRET assay. It counts as cell-based. On the technique in general: In BRET a luciferase serves as donor, and the signal depends on an acceptor being close.
Test [3] deals with T2, Serine/threonine-protein kinase ULK1 (Homo sapiens) (UniProt O75385).
T2 sequence (whole entry): T1 sequence (O75385 whole entry)
As to the kind of experiment: Inhibition of Myc-tagged ULK1 (unknown origin) expressed in HEK293T cells cotransfected with wild-type Flag tagged Vps34 assessed as decrease in pVPS34 Ser249 at 10 uM measured after 1 hr by Western blot analysis relative to control. It counts as cell-based. A general note: In western blotting, separated proteins are transferred to a membrane and probed.

Test [4] concerns the target T2, Serine/threonine-protein kinase ULK1 (Homo sapiens). As to the kind of experiment: Binding affinity to recombinant human ULK1 assessed as change in melting temperature at 10 uM by thermal shift assay.

Consider `Oc1ccccc1Nc1ncc(C(F)(F)F)c(NC2CC2)n1`, for which the IC50 in test [1] amounted to 50 nM; in test [2] it was 6040 nM.
Regarding `FC(F)(F)c1cnc(Nc2ccc3[nH]ncc3c2)nc1NC1CC1`, the IC50 in test [1] came out at 14 nM; in test [2], 1480 nM.
Consider `FC(F)(F)c1cnc(Nc2ccc3nc[nH]c3c2)nc1NC1CC1`, for which the values for the IC50 in test [1] and in test [2] were 5 nM and 585 nM, respectively.
On to `CNC(=O)c1ccccc1Oc1nc(Nc2cc(OC)c(OC)c(OC)c2)ncc1Br`, for which, in test [3], the inhibition turned out to be 70%. The 50% inhibitory concentration (IC50) in test [1] came to 130 nM. Besides, the ΔTm in test [4] worked out at 9.5 °C.
Consider `FC(F)(F)c1cnc(Nc2ccc3nccnc3c2)nc1NC1CC1`, for which the results for the IC50 in test [1] and in test [2] were 13 nM and 1460 nM, respectively.

In general, IC50 refers to the concentration that inhibits the measured activity by half. One may read the inhibition as the share of the control response that was lost under treatment. For orientation: ΔTm means the change in melting temperature against a reference sample.
